Source: article PMC9920986 (Molecules, 2023)

Molecular target: T1, human recombinant NRH:quinone oxidoreductase (NQO2) (Homo sapiens, UniProt P16083)
T1 construct: purchased Sigma Q0380
T1 sequence (P16083 1-231): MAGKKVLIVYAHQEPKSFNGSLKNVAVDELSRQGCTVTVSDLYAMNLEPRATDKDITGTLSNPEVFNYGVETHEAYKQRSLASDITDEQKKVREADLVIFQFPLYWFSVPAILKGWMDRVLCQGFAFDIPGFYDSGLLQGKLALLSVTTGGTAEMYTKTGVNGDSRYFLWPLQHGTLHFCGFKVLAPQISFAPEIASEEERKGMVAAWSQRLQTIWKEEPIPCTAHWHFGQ
Experiment: biochemical
Format: biochemical
Conditions: inhibitor 0–25 µM, BNAH 9.375–150 µM
Experimental: The inhibition activity of all synthesized compounds at a concentration of 10 µM was preliminarily tested in vitro using human recombinant NRH:quinone oxidoreductase (NQO2).
The activity of recombinant human NQO2 (Sigma #Q0380, St. Louis, […], USA) was evaluated kinetically using menadione and N-benzyl-dihydronicotinamide (BNAH) as the substrate and co-substrate, respectively. All reagents and test compounds were dissolved in 50 mM Hepes-KOH (pH 7.4) containing 1 mM of β-octyl-D-glucopyranoside, 0.1 mg/mL BSA and 1 μM FAD. […] Quercetin was used as a positive control. The solutions of the test compounds were pre-incubated for 5 min with 50 μL of human recombinant NQO2 (final concentration 42 ng/mL). Then, 25 μL of menadione was introduced at a final concentration of 100 μM. The reaction was started with 25 μL of 100 μM BNAH. The fluorescence of the co-substrate BNAH was followed at wavelengths of 370/440 nm at 37 °C using an Infinite M200 Pro microplate reader (Tecan, Grödig, Austria). The fluorescence data was fit according to a one-phase decay nonlinear regression to obtain slope values with Prism 8.0 (GraphPad Inc., San Diego, CA, USA). The activity in sample wells were normalized against negative control and enzyme-blank samples.

Compound	Mechanism of NQO2 inhibition
CN1C(=O)C(=Cc2ccc(O)cc2)c2ccccc21 [Compound 15, 3-(4-hydroxybenzylidene)-N-methyl-2-oxindole]	mixed-type (noncompetitive) inhibitor

Same assay, conditions: read-out: NQO2 Inhibition, %

Compound	inhibition at 10 µM [%]
O=C1Nc2ccccc2C1=Cc1ccncc1 [Compound 10, 3-(4-pyridinylmethylidene)-2-oxindole]	27.3
Cc1ccc(C(=O)CC2(O)C(=O)Nc3ccccc32)cc1 (centres unmarked) [Compound 52, 3-hydroxy-3-[2-(4-methylphenyl)-2-oxoethyl]-2-oxindole]	-92.9
COC(=O)Nc1ccc2c(c1)C(=Cc1ccc(Br)cc1)C(=O)N2 [Compound 32, 3-(4-bromobenzylidene)-5-(methoxycarbonylamino)-2-oxindole]	95.5
Cc1ccc(C(=O)CC2(O)C(=O)Nc3ccc(NC(=O)c4ccco4)cc32)cc1 (centres unmarked) [Compound 51, 3-hydroxy-5-(2-furoylamino)-3-[2-(4-methylphenyl)-2-oxoethyl]-2-oxindole]	25.6
O=C1Nc2ccc(NC(=O)c3ccco3)cc2C1=Cc1ccc(O)cc1 [Compound 18, 3-(4-hydroxybenzylidene)-5-furoylamino-2-oxindole]	96.4
O=C1Nc2ccc([N+](=O)[O-])cc2C1=Cc1ccccn1 [Compound 4, 5-nitro-3-(2-pyridinylmethylidene)-2-oxindole]	1.85
O=C1Nc2ccc(Br)cc2C1=Cc1ccccn1 [Compound 3, 5-bromo-3-(2-pyridinylmethylidene)-2-oxindole]	18.6
CC(=O)Nc1ccc2c(c1)C(=Cc1cccc(O)c1)C(=O)N2 [Compound 13, 3-(3-hydroxybenzylidene)-5-acetylamino-2-oxindole]	89.1
O=C1Nc2ccccc2C1=Cc1ccc(O)cc1 [Compound 14, 3-(4-hydroxybenzylidene)-2-oxindole]	31.7
CC(=O)Nc1ccc2c(c1)C(=Cc1ccc(O)cc1)C(=O)N2 [Compound 16, (E,Z)-3-(4-Hydroxybenzylidene)-5-acetamido-2-oxindole]	70.4
Cn1cc(C=C2C(=O)Nc3ccccc32)cn1 [Compound 41, 3-((1-methyl-1H-pyrazol-4-yl)methylene)-2-oxindole]	59.8
O=C1Nc2ccc([N+](=O)[O-])cc2C1=Cc1ccncc1 [Compound 12, 5-nitro-3-(4-pyridinylmethylidene)-2-oxindole]	19.2
CCOc1ccc(/C=C2/C(=O)Nc3ccccc32)cc1 [Compound 22, (E)-3-(4-Ethoxybenzylidene)-2-oxindole]	25.4
Cc1ccc(C(=O)CC2(O)C(=O)Nc3ccc(Br)cc32)cc1 (centres unmarked) [Compound 49, 3-hydroxy-5-bromo-3-[2-(4-methylphenyl)-2-oxoethyl]-2-oxindole]	-85.2
CN1C(=O)C(=Cc2ccccn2)c2ccccc21 [Compound 2, N-methyl-3-((pyridin-2-yl)methylene)-2-oxindole]	64.4
O=C1Nc2ccc(NC(=O)c3ccccc3)cc2C1=Cc1ccc([N+](=O)[O-])cc1 (mixture of isomers) [Compound 29, 5-benzoylamino-3-((4-nitrophenyl)methylene)-2-oxindole]	21.8
O=C1Nc2ccc(Br)cc2C1=Cc1cccs1 [Compound 38, 5-bromo-3-(2-thienylmethylidene)-2-oxindole]	29.9
O=C1Nc2ccc([N+](=O)[O-])cc2C1=Cc1cccnc1 [Compound 9, 5-nitro-3-(3-pyridinylmethylidene)-2-oxidole]	4.25
COc1cc(C=C2C(=O)Nc3ccc(NC(C)=O)cc32)cc(OC)c1OC [Compound 24, 3-(3,4,5-trimethoxybenzylidene)-5-acetylamino-2-oxindole]	92.8

Compound	inhibition at 10 µM [%]
CN(C)c1ccc(C=C2C(=O)Nc3ccccc32)cc1 [Compound 30, (E,Z)-3-(4-Dimethylaminobenzylidene)-2-oxindole]	27.3
CCOC(=O)c1[nH]ncc1C=C1C(=O)Nc2ccc([N+](=O)[O-])cc21 [Compound 40, 3-((5-ethoxycarbonyl-1H-pyrazol-4-yl)methylene)-5-nitro-2-oxindole]	92.3
Nc1ccc2c(c1)C(Cc1ccccn1)C(=O)N2 (centres unmarked) [Compound 47, 3-(pyridin-2-ylmethyl)-5-amino-2-oxindole]	26.9
CC(=O)Nc1ccc2c(c1)C(=Cc1ccccn1)C(=O)N2 [Compound 5, (E,Z)-3-(2-Pyridinylmethylidene)-5-acetamido-2-oxindole]	46.4
CN1C(=O)C(=Cc2ccc(O)cc2)c2ccccc21 [Compound 15, 3-(4-hydroxybenzylidene)-N-methyl-2-oxindole]	98.9
COC(=O)CCn1cc(C=C2C(=O)Nc3ccccc32)cn1 [Compound 45, (E,Z)-3-(1-[2-(Methoxycarbonyl)ethyl]-1H-pyrazol-4-ylmethylidene)-2-oxindole]	29
O=C1Nc2ccc(Br)cc2C1=Cc1ccco1 [Compound 35, 5-bromo-3-(2-furylmethylidene)-2-oxindole]	-15.2
Cc1n[nH]cc1C=C1C(=O)Nc2ccccc21 [Compound 43, 3-((3-methyl-1H-pyrazol-4-yl)methylene)-2-oxindole]	77.8
COc1cc(C=C2C(=O)Nc3ccc(NC(=O)c4ccco4)cc32)cc(OC)c1OC [Compound 25, 3-(3,4,5-trimethoxybenzylidene)-5-furoylamino-2-oxindole]	91
O=C1Nc2ccccc2/C1=C\c1ccccn1 [Compound 1, (E)-3-(2-pyridinylmethylidene)-2-oxindole]	19.6
COc1ccc(C=C2C(=O)Nc3ccc(NC(=O)c4ccccc4)cc32)cc1 [Compound 21, (E,Z)-3-(4-Methoxybenzylidene)-5-benzoylamino-2-oxindole]	30.9
O=c1c(O)c(-c2ccc(O)c(O)c2)oc2cc(O)cc(O)c12 [Quercetin, reference compound]	98
CCOC(=O)c1[nH]ncc1C=C1C(=O)Nc2ccccc21 [Compound 39, 3-((5-ethoxycarbonyl-1H-pyrazol-4-yl)methylene)-2-oxindole]	47.3
O=C1Nc2ccccc2C1=Cc1ccc([N+](=O)[O-])cc1 [Compound 27, 3-((4-nitrophenyl)methylene)-2-oxindole]	4.66
COC(=O)Nc1ccc2c(c1)C(=Cc1ccc(O)cc1)C(=O)N2 [Compound 17, 3-(4-hydroxybenzylidene)-5-(methoxycarbonylamino)-2-oxindole]	93.6
Nc1ccc(CC2C(=O)Nc3ccccc32)cc1 (centres unmarked) [Compound 46, 3-(4-aminobenzyl)-2-oxindole]	19.1
COc1ccc2c(c1)C(O)(CC(=O)c1ccc(C)cc1)C(=O)N2 (centres unmarked) [Compound 48, 3-hydroxy-5-methoxy-3-[2-(4-methylphenyl)-2-oxoethyl]-2-oxindole]	-50.3
COc1cc(C=C2C(=O)Nc3ccccc32)cc(OC)c1OC [Compound 23, (E,Z)-3-(3,4,5-Trimethoxybenzylidene)-2-oxindole]	85.7
